## Measured affinities in a library of Ab-14 heavy chain variants

From the AlphaSeq antibody data of Li et al. 2023 (doi:10.1038/s41467-023-39022-2), copy in the FLAb collection.

Target peptide (SARS-CoV-2 spike, HR2 region): PDVDLGDISGINAS

Ab-14 is the parent antibody, in scFv form: VH, then three GGGGS repeats, then VL. The light chain is unchanged in all variants.
VH: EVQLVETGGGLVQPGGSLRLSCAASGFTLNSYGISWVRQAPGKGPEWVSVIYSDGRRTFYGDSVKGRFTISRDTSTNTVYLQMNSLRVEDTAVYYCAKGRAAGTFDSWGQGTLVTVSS
VL: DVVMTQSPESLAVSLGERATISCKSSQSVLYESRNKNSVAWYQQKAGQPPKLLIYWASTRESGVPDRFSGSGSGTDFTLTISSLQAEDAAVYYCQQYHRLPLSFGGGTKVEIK

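The starting antibody came from a phage panning campaign against this peptide. The variants were designed computationally from a first round of random CDR variants and then made and measured. Several design methods are mixed in this list. Affinity was read by AlphaSeq, a pooled yeast mating assay with surface-displayed partners. After mating in shaken culture at 30 °C for 16 h, diploids were selected and their barcode pairs sequenced. The ratio of observed to expected reads was calibrated, replicate by replicate, on BCL2-family standards whose Kd was known from biolayer interferometry. Each pool was mated in six replicate cultures.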

Changes read parent residue, position, new residue, counted from the first residue of the VH shown. This list holds designs with at most six substitutions. Affinities are written as log10 Kd with Kd in nM; a lower number is a better binder. Replicates are averaged; those with no signal do not enter the mean. "ND" means that the variant was in the library but no mating with the target was seen in that replicate; the authors take this as a sign of poor binding, and no number exists.

changes,"replicates, log10 nM","log10 Kd (nM), mean",empty controls
T28S S63D A101T S107T,0.46 / 0.29 / 0.29 / 0.24 / 0.27 / 0.75,0.38,0 of 18
T28D G61V R100Q S107F,1.17 / 1.20 / 1.77 / 1.88 / 0.94 / 1.51,1.41,0 of 18
T28S L29P G61I A102M,ND / ND / ND / ND / ND / ND,ND,0 of 18
R100E G103W,ND / ND / ND / ND / ND / ND,ND,0 of 18
T28S G61A R100K A101M,-0.24 / -0.28 / -0.32 / -0.49 / 0.35 / -0.61,-0.26,1 of 18 (1.55)
T28D S63M R100Q A101T,1.12 / 1.75 / 1.28 / 0.40 / 0.62 / 1.54,1.12,0 of 18
G26P T28D G61A A101E,1.47 / ND / 0.16 / 2.00 / 0.47 / ND,1.03,0 of 18
T28D G61Q R100Q A101E,0.74 / 0.86 / 0.14 / -0.08 / 0.95 / 0.63,0.54,0 of 18
S53A G61T,0.75 / 0.29 / 0.12 / 0.18 / 0.50 / 0.30,0.36,1 of 18 (1.47)
S31D D106V,ND / ND / ND / ND / ND / ND,ND,0 of 18
G61E D62N A102S,2.77 / 1.76 / ND / ND / ND / 1.89,2.14,0 of 18
T28E N30E S31N,1.17 / 0.91 / 0.35 / 0.55 / 0.22 / 0.63,0.64,1 of 18 (0.50)
R56I A101E D106R,ND / ND / ND / ND / ND / ND,ND,0 of 18
S31Q R100E S107K,ND / ND / ND / ND / ND / ND,ND,0 of 18
S31D A101V S107T,0.51 / -0.83 / ND / 1.32 / -0.28 / -0.91,-0.04,0 of 18
S31E S63Q R100K A102G,2.26 / 0.88 / 0.83 / 1.26 / 1.23 / 1.03,1.25,0 of 18
F27T S31D F59Q G61I,ND / ND / ND / ND / ND / ND,ND,0 of 18
T28S S31E G61V R100N,1.53 / 1.13 / 0.84 / 1.36 / 0.37 / 1.39,1.10,1 of 18 (2.07)
T28E S31E G103V S107L,ND / ND / ND / ND / ND / ND,ND,0 of 18
T28D R56K,0.25 / 0.31 / 0.04 / -0.11 / -0.18 / -0.01,0.05,0 of 18
S53A A102K S107W,ND / ND / ND / ND / ND / ND,ND,1 of 18 (2.29)
T28A S31L G61S G103A,ND / ND / ND / ND / ND / ND,ND,2 of 18 (2.81)
T28S R100A A101E,0.33 / 0.21 / 0.05 / -0.27 / 0.14 / 0.10,0.09,0 of 18
N30D R100E S107R,1.29 / 0.97 / 2.80 / 1.46 / 1.38 / 1.02,1.49,0 of 18
N30S V50T F105D,ND / ND / ND / ND / ND / ND,ND,0 of 18
G26K T28S G61A A101H,1.52 / 1.86 / 1.34 / 1.34 / 2.10 / 1.50,1.61,0 of 18
G26N S31E G61T G99Y A101F,ND / ND / ND / ND / ND / ND,ND,0 of 18
G61H A102I,ND / ND / ND / ND / ND / ND,ND,0 of 18
T28D D62K G103H T104W F105N D106N,ND / ND / ND / ND / ND / ND,ND,0 of 18
S31E F59A S63N A101V,0.62 / 0.00 / 0.09 / -0.46 / 0.39 / -0.02,0.10,0 of 18
S53A R56W T58V D106L,ND / ND / ND / 2.09 / ND / ND,2.09,0 of 18
T28D G61L A101Q,ND / 0.23 / 1.55 / 1.53 / 1.51 / 2.30,1.43,0 of 18
F27T I34V A102K,ND / ND / ND / ND / 0.58 / ND,0.58,0 of 18
T28K S53A R100E,0.11 / -0.58 / -0.56 / -0.48 / -0.66 / -0.43,-0.43,0 of 18
T28G S31D R56Q G61I T104M,0.80 / ND / ND / ND / ND / 2.07,1.43,0 of 18
F27H G33Q G61D R100Q A101L,ND / ND / ND / ND / ND / ND,ND,0 of 18
T28D R100K A101I S107T,0.18 / 0.01 / 0.79 / 0.55 / 0.15 / 0.54,0.37,0 of 18
F59Y R100Y S107T,0.30 / 0.24 / -0.42 / -0.49 / -0.59 / -0.53,-0.25,1 of 18 (1.07)
T28D R56W G61V A101T,1.28 / 1.79 / 0.98 / ND / 1.14 / 1.58,1.36,0 of 18
F27E T28H F105N D106P,ND / ND / ND / ND / ND / ND,ND,0 of 18
T28S S31M A101E,0.23 / 0.34 / 0.31 / -0.82 / -0.44 / -0.09,-0.08,0 of 18
T28N S31K R56V R100T D106C,ND / ND / ND / ND / ND / ND,ND,1 of 18 (-0.46)
T28Q G61A S63N A101T,1.48 / 1.34 / 1.79 / 1.42 / 1.70 / 2.25,1.66,1 of 18 (2.21)
T28W S31D F59W,ND / 1.13 / ND / ND / ND / ND,1.13,0 of 18
S31D G33S G61T R100T A101T,ND / ND / ND / ND / ND / ND,ND,0 of 18
G61I R100L A101L,ND / ND / ND / ND / ND / ND,ND,0 of 18
S31Q A101I A102K T104R,ND / ND / ND / ND / ND / ND,ND,0 of 18
F27N R56W G103T,0.77 / ND / ND / ND / ND / ND,0.77,0 of 18
T28D G61M A101T,-0.52 / 0.02 / -0.10 / -0.27 / -0.42 / -0.03,-0.22,0 of 18
S31D F59Q G61I S63A,1.50 / 1.65 / 1.61 / 1.08 / 1.45 / 1.95,1.54,1 of 18 (2.27)
S31D G103L T104V D106I,ND / ND / ND / ND / ND / ND,ND,0 of 18
G61K R100Q A101E,1.64 / 0.46 / 0.27 / 0.62 / 0.29 / 0.63,0.65,1 of 18 (1.97)

For reference, 9 entries of the list once more:

{"changes": "T28D S63M R100Q A101T", "replicates, log10 nM": "1.12 / 1.75 / 1.28 / 0.40 / 0.62 / 1.54", "log10 Kd (nM), mean": "1.12", "empty controls": "0 of 18"}
{"changes": "T28D G61V R100Q S107F", "replicates, log10 nM": "1.17 / 1.20 / 1.77 / 1.88 / 0.94 / 1.51", "log10 Kd (nM), mean": "1.41", "empty controls": "0 of 18"}
{"changes": "S31D D106V", "replicates, log10 nM": "ND / ND / ND / ND / ND / ND", "log10 Kd (nM), mean": "ND", "empty controls": "0 of 18"}
{"changes": "T28D G61M A101T", "replicates, log10 nM": "-0.52 / 0.02 / -0.10 / -0.27 / -0.42 / -0.03", "log10 Kd (nM), mean": "-0.22", "empty controls": "0 of 18"}
{"changes": "T28S S31M A101E", "replicates, log10 nM": "0.23 / 0.34 / 0.31 / -0.82 / -0.44 / -0.09", "log10 Kd (nM), mean": "-0.08", "empty controls": "0 of 18"}
{"changes": "R56I A101E D106R", "replicates, log10 nM": "ND / ND / ND / ND / ND / ND", "log10 Kd (nM), mean": "ND", "empty controls": "0 of 18"}
{"changes": "G26P T28D G61A A101E", "replicates, log10 nM": "1.47 / ND / 0.16 / 2.00 / 0.47 / ND", "log10 Kd (nM), mean": "1.03", "empty controls": "0 of 18"}
{"changes": "N30D R100E S107R", "replicates, log10 nM": "1.29 / 0.97 / 2.80 / 1.46 / 1.38 / 1.02", "log10 Kd (nM), mean": "1.49", "empty controls": "0 of 18"}
{"changes": "T28S S31E G61V R100N", "replicates, log10 nM": "1.53 / 1.13 / 0.84 / 1.36 / 0.37 / 1.39", "log10 Kd (nM), mean": "1.10", "empty controls": "1 of 18 (2.07)"}

The parent sequence was in this pool as ten entries: three were never detected, three once, and four in most replicates, with averages from 0.34 to 2.37. A sequence measured in both rounds can read differently, since the two assays cover different ranges. In the paper, a design with two or fewer of six values counts as a poor binder. As a blank, each scFv also met three strains without target: over all heavy chain designs, 1% of these pairings were detected, typically at 2.08 and seldom below 0.84. The control count says in how many pairings with the empty strains this scFv gave a signal, with their mean in brackets.